# Antibody variant affinities, Ab-14 light chain, assay B

All variants were tested on one target, the spike HR2 peptide PDVDLGDISGINAS (SARS-CoV-2).

Each scFv is VH, a 15-residue (Gly4Ser)3 linker, VL, as in the parent Ab-14, and differs from it in the CDRs of the light chain only.
VH: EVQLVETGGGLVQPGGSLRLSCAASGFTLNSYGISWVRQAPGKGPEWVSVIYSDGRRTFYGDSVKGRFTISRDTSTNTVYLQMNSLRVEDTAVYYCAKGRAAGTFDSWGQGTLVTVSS
VL: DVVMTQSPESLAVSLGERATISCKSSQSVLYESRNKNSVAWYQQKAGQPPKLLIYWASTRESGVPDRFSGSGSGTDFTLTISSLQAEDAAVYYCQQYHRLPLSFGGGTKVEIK

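This is the validation round: designs drawn from the data on random variants, tested in the same kind of assay. Several design methods are mixed in this list. The assay is AlphaSeq: two haploid yeast populations carry antibody and antigen on their surface. Pairs that bind mate more often; barcode pairs of the diploids are counted by sequencing. The ratio of observed to expected reads was calibrated, replicate by replicate, on BCL2-family standards whose Kd was known from biolayer interferometry. There are six technical replicates.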

Each variant is given by its three light chain CDRs, as the data file delimits them; those of the parent are KSSQSVLYESRNKNSVA, WASTRES, QQYHRLPLS. Scale: log10 of Kd in nM, estimated from mating counts; low values are strong binders. A mean of the replicates is given; it leaves out those without a signal. An entry "nd" has no value in the source: the pair was not observed among the diploids in any replicate. This suggests poor binding but is not conclusive. The parent sequence was in this pool as ten entries: three were never detected, three once, and four in most replicates, with averages from 0.34 to 2.37.

"mean, log10 nM",replicates with signal,CDR-L1,CDR-L2,CDR-L3
-0.05,6 of 6,KLYFNVGTMAHNTQSIA,DMERRED,QQYHRLPLS
0.93,6 of 6,KFYSAWSGEEQNNNNIA,SADTLNH,QQYWTLPLS
0.23,6 of 6,KVQQSNLYESRNKNSVA,NASYRES,QQYHRLPLS
0.25,6 of 6,KIYQSVGTMSHNKQSIA,DMERRED,QQYHRLPLS
0.32,6 of 6,MMSQVTGMESKHRNNVA,QTSTREA,QQYDRLPLI
-0.16,6 of 6,KMEQSVLYESRNKNSVA,NASTRES,QQYHRLPLS
1.69,6 of 6,ALTRQNLQNTDNLNAIA,EQNQTQE,QQYFRLPFA
1.81,6 of 6,KLNQDPVLKTNINNNVA,EHSEVFQ,QQYAHLPLQ
2.44,5 of 6,KSSLSVLYESLNKNSVA,WASTRES,QQYHRLPLS
0.07,6 of 6,KFSQSELYESRMKNSVA,NASQRES,QQYHRLPLS
0.50,6 of 6,KLQQSFLYEERNPNSVA,NASLREL,QQYHRLPLS
1.09,6 of 6,KLVQFMNRGTHHTSNIA,DAQQRLD,QQYYRLPLA
0.22,6 of 6,KLQNSMLYESRNKNSVA,DASKRES,QAYHRLPLS
0.35,6 of 6,KLSQSVLYESRNKNSVA,NASQRLS,QQYHRLPLS
2.24,1 of 6,KSWQSVLYESRNKNSVN,WASTRES,QQYHRLPLS
-0.39,6 of 6,KVQQSWPYESRNKNSVA,EASTRES,QQYHRLPLS
0.94,6 of 6,TISQLMNMGQFAINSVA,QASIRNA,QQYDRLPLM
0.57,6 of 6,NLSGMTAHETVKEKNIA,ERSTREQ,QQYNRLPLS
0.62,6 of 6,TLSQSTDLESVHKNSIA,DLMTRES,QQYHRLPLS
0.54,6 of 6,TISQMTSLFSQTINNVA,EVSTREN,QQYDRLPLA
-0.38,6 of 6,KLSQSVLYESRNKNNVA,NASTRLS,QQYHRLPLS
0.16,6 of 6,KLSWSVEYQDRLSNSVA,DASQREW,QQYHRLPLS
0.71,6 of 6,KSSISGLYESRNFNSVA,EASTRES,QQYHRLPLS
-0.21,6 of 6,KLEQSQLYESRNKNSVA,NASQRLS,QQYHRLPLS
2.81,5 of 6,KVSEFMRGLMMRTDSIA,DNVTREN,QQYDRLPLS
-0.41,6 of 6,KFSQSVDFESRNKNSVA,DASTRES,QQYHRLPLS
0.42,6 of 6,TLTQVGGYEMNAHNSIA,DLRTRES,QQYHRLPLS
nd,0 of 6,MLSEVLHMLGVKKNSIA,DLVIRAN,QQYHRLPLM
-0.04,6 of 6,KQSQSVLYESRDKNSVA,NASTREE,QQYHRLPLS
2.06,6 of 6,KVTTNLEHQADRKNSIA,EADMVAA,QDYMRLPLI
0.85,6 of 6,NIQDNLGGLLSQINSVA,STEELSD,QSYHRLPLS
0.14,6 of 6,KSSQSVLMESNNKNSVA,EATTRES,QQYHRLPLS
-0.30,6 of 6,KVSQSGLYESRNKNSVA,QASTRES,QQYHRLPLS
1.52,6 of 6,KSSQSVLYENQNKNSVA,GASTREY,QQKHRLPHS
-0.24,6 of 6,KLPQSVLYESRNKNAVA,QASTRES,QQYHRLPLS
-0.18,6 of 6,KMEQGVMYESRNKMSVA,GASVRES,QQYHRLPLS
1.64,5 of 6,NIYQAMHTLMQAKNNIA,DVTNRNN,QQYHRLPLS
nd,0 of 6,KISQMVRVGSTHSNSIA,EEATRMK,QQYHRLPLA
1.11,6 of 6,MVTQMAMTGMRNKRSVA,NAEMREN,QQYHRLPLI
-0.37,6 of 6,KVDQSVLYESRNKNSVA,EASTRES,QQYHRLPLS
0.62,6 of 6,KSSQSVLYEFRNKNSVA,NASTRES,QQYHRLPLS
-0.08,6 of 6,KLSQSVLYESRQKNSVA,NASTRSS,QQYHRLPLS
1.59,5 of 6,KSSHSVLYNSRNKNSVA,WASTRES,QQYHRLPLS
1.04,6 of 6,RISYEQFGNTYSVNNVA,QASVRAP,QMYQRLPLV
0.95,6 of 6,KVSQGELYESRDANNVA,NASTREN,QQYHRLPLS
0.33,6 of 6,KSSQSVLKESRNKNSVA,WASTRES,QQYHRLPLS
1.33,6 of 6,KLSQYSGGESRNKSSLA,DNSTRES,QQYHRLPLS
-0.06,6 of 6,KLSQSMLYESRNKNSVA,HASQRES,QQYHRLPLS
nd,0 of 6,MMSMGSLTGMRARNNVA,QEETREK,QQYHRLPLI
2.23,5 of 6,TLTQVTMVESYNKNSVA,QANTREE,QDYHRLPLS
-0.20,6 of 6,KLSQSVLYEERNKNSVA,SASTRES,QQYHRLPLS
-0.26,6 of 6,KVSGLGLYGQRNKNSVA,EASYRED,QQYHRLPLS
1.05,6 of 6,ALSQKGFQQSGMRDSIA,HSDQRLA,QQYYHLPLA
0.50,6 of 6,KWSQSVLMESMLSNSVA,NASQRES,QQYHRLPLS
2.33,1 of 6,KSSQSVLYESRNKWSVA,WASTRES,QQYHRLPLS
1.06,6 of 6,KLSTSQLYWSRNFNSVA,QASTRET,QQYHRLPLS
-0.01,6 of 6,KTYVSSLYESRNKNSVA,QASERES,QQYHRLPLS
0.07,6 of 6,KVPQSHLYESRNKNSVA,NASTRES,QQYHRLPLS
0.28,6 of 6,KMSQSVLMEHRNKNSVA,SASLRES,QQYHRLPLS
-0.06,6 of 6,KVSQSMPYESRNKNSVA,NASTRES,QQYHRLPLS
-0.33,6 of 6,KLSQSWWMESRNPNNVA,HASTRES,QQYHRLPLS
0.87,6 of 6,MLLQSTMYGEKNRNSVA,HASTRED,QQYHRLPLI
0.93,6 of 6,KSEQSVHYESRNKNSVA,HASTRES,QQYHRLPLS
0.44,6 of 6,TITGVMQQMSHSKNNVA,EVSTRLE,QQYFRLPLE

A sequence measured in both rounds can read differently, since the two assays cover different ranges. Nonspecific signal, from three strains lacking the peptide, appeared in 4% of pairings of all light chain designs, centred on 2.64 (5% of these signals below 1.59); values are not corrected for it. The authors' rule: three or more of the six replicates give a measured affinity, fewer mean a poor binder.

Values reported by Li et al. 2023, doi:10.1038/s41467-023-39022-2 (FLAb copy).